Experimental data reported in PubChem BioAssay AID624204 (Sanford-Burnham Center for Chemical Genomics, 2012).
The list shows a part of the results, in another mix than the full data. Activity calls are given as the source filed them.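 The calls were made as follows: active = inhibition at least 30% at 10 µM, raw YFP signal under a set limit, fluorescence ratio 0.5 to 1.5; inactive = the rest.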

Sequences of proteins named here, by UniProt entry; tags and fusion partners are left off. Residues count along the entry.
UniProt Q9P0U3, 419-644 limits assumed: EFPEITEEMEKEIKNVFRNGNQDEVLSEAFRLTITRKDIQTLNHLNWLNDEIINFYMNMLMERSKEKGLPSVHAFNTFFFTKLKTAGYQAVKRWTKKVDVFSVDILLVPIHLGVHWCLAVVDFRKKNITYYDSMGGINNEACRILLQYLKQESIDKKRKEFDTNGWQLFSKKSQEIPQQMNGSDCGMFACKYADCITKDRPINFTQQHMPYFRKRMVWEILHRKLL

molecular target: Sentrin-specific protease 1 (Homo sapiens) (UniProt Q9P0U3); assay: blockers of SENP1 SUMO protease activity – biochemical, FRET, uHTS, primary screen (AID 624204); settings: recombinant SENP1 catalytic domain, CyPet-SUMO1-YPet FRET cleavage; at 10 µM; active compounds read high;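 also: 0% = enzyme with DMSO and 100% = no enzyme wells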

SMILES	inhibition
CCC(=O)N(c1ccccc1)C1(COC)CCN(CCn2nnn(CC)c2=O)CC1	inactive: 0.832%
CCC(=O)N(c1ccccc1)C1(COC)CCN(CCc2cccs2)CC1	inactive: -0.695%
